# Measured affinities in a library of Ab-14 light chain variants

Binding partner: SARS-CoV-2 spike HR2 peptide, sequence PDVDLGDISGINAS.

Each scFv is VH, three GGGGS repeats, VL, as in the parent Ab-14, and differs from it in the CDRs of the light chain only.
VH: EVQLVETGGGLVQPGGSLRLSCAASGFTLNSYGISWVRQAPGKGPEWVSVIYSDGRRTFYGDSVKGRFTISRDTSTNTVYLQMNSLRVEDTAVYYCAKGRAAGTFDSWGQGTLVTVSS
VL: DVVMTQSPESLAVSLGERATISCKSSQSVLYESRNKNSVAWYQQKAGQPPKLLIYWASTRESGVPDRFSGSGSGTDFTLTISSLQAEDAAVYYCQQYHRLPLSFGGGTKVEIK

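The starting antibody came from a phage panning campaign against this peptide. These sequences belong to a second round, designed from the earlier measurements on random variants of the parent. Several design methods are mixed in this list. AlphaSeq pools MATa yeast showing the antibodies with MATalpha yeast showing the peptide. Mating (16 h, 30 °C) was followed by selection of diploids and sequencing of their barcodes. A regression on co-assayed BCL2-family reference pairs converts the normalised counts of each replicate to an apparent Kd. The assay was run in six technical replicates.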

Variants are written as CDR1, CDR2 and CDR3 of the light chain (limits as in the source). Parent: KSSQSVLYESRNKNSVA, WASTRES, QQYHRLPLS.
Variants here have at most six changes.
The Kd shown is the geometric mean over detected replicates; a lower Kd is a better binder.
Where no diploid with the target was found in any replicate, the entry reads "nd": below detection, most likely a poor binder, though not proof of it.
The authors' rule: three or more of the six replicates give a measured affinity, fewer mean a poor binder.

With KLYQSELYESRNKNSVA / EASQRES / QQYHRLPLS the result was 390 pM (6 of 6 replicates; controls 1 of 18).
With KFIQIDLYESRNKNSVA / QASTRES / QQYHRLPLS the result was 2.2 nM (6 of 6 replicates; controls 0 of 18).
With KQSQAFLNESRNKNSVA / DASTRES / QQYHRLPLS the result was 5.7 nM (6 of 6 replicates; controls 0 of 18).
With KWSQSVLYESRNKNSVA / EASTRES / QQYHRLPLS the result was 12 nM (6 of 6 replicates; controls 0 of 18).
With KSSQSVLYESRNKNSVA / WASTRES / QQYHRLPGS the result was nd (0 of 6 replicates; controls 0 of 18).
With KSSDSVLYESRNKNSVA / WASTRSS / QQYHRLPLL the result was nd (0 of 6 replicates; controls 0 of 18).
With KMSQSVLYESRAKNSVA / WASTRES / QQYHRLPLS the result was 3.1 nM (6 of 6 replicates; controls 0 of 18).
With KVSQSVLYESRNKNNVA / AASTRES / QQYHRLPLS the result was 550 pM (6 of 6 replicates; controls 0 of 18).
With KIPQSVLYESRNKNSVA / NASTRES / QQYHRLPLS the result was 290 pM (6 of 6 replicates; controls 2 of 18).
With KSSQSDLYESRNKNSVA / GASTREV / QQYHRLPLS the result was 1.2 nM (6 of 6 replicates; controls 2 of 18).
With KSSQSVLYESRNKNIVA / WASTRRG / QQYHRLPLS the result was 410 nM (3 of 6 replicates; controls 0 of 18).
With KSSQSSLYESRSKNSVA / NASTRES / NQYHRLPLS the result was 5.8 nM (6 of 6 replicates; controls 0 of 18).
With KISISYLGESRNKNSVA / EASTRES / QQYHRLPLS the result was 1.6 nM (6 of 6 replicates; controls 0 of 18).
With KSSQSVLYESYNKNPVA / QASTRES / QQYHRLPLS the result was 5.6 nM (6 of 6 replicates; controls 0 of 18).
With KLQQQELYESRNKNSVA / SASTREE / QQYHRLPLS the result was 2.6 nM (6 of 6 replicates; controls 0 of 18).
With KSLQSVLYESRNKNSVA / LASTRED / QQYHRLPLI the result was 200 nM (1 of 6 replicates; controls 0 of 18).
With KSSISYLGESRNKNSVA / EASTRIS / QQYHRLPLS the result was 890 pM (6 of 6 replicates; controls 1 of 18).
With KVRGSTLYESRNKNSVA / WASTRES / QQYHRLPLS the result was 5.6 nM (6 of 6 replicates; controls 0 of 18).
With KSSQSVWYESENKNSVA / WASTRES / QQYERSPLS the result was nd (0 of 6 replicates; controls 1 of 18).
With KSGQGVLYESRNKNSVA / DASTRES / QQYHRLPLS the result was 970 pM (6 of 6 replicates; controls 1 of 18).
With KQSDSVLYESRNKNSVA / WASTRES / QQYSRMPLS the result was 4.6 nM (6 of 6 replicates; controls 1 of 18).
With KLPQSELYESRNKNSVA / EASTRES / QQYHRLPLS the result was 1.6 nM (6 of 6 replicates; controls 0 of 18).
With KQSQSVLYESRNKNSVA / DASQRES / QQYHRLPLD the result was 3.3 nM (6 of 6 replicates; controls 0 of 18).
With KLSQSVLYESRNKNSVA / NANTRMS / QQYHRLPLS the result was 380 pM (6 of 6 replicates; controls 0 of 18).
With KVSQSTLYEEANFNSVA / WASTRES / YQYHRLPLS the result was nd (0 of 6 replicates; controls 0 of 18).
With KLEQSMNYESRNKNSVA / NASTRES / QQYHRLPLS the result was 600 pM (6 of 6 replicates; controls 1 of 18).
With DSSQGVLYESRNKNSVA / DASTRES / QQTHRLPLS the result was 5.9 nM (6 of 6 replicates; controls 1 of 18).
With KLSQSGLYESRNKNSVA / NASTRCS / QQYHRLPLS the result was 870 pM (6 of 6 replicates; controls 0 of 18).
With KFSQIVLYDSRNKNSVA / WAYTRES / QQYHRLPLS the result was nd (0 of 6 replicates; controls 0 of 18).
With KLSQSKLYESRNKNSVA / NASTRES / QQYHRLPLS the result was 3.1 nM (6 of 6 replicates; controls 0 of 18).
With KLQGSVLYESRNKNSVA / GASTRES / QQYHRLPLS the result was 280 pM (6 of 6 replicates; controls 2 of 18).
With KSSQSVLYESRNKNGVA / WASTRVS / QQYHRLPLS the result was 100 nM (4 of 6 replicates; controls 1 of 18).
With KSSNSVLGESRNKNSVA / EASTRED / QQYHRLPLS the result was 2.8 nM (6 of 6 replicates; controls 1 of 18).
With KLSQSGLYESRNKNNVA / HASTRES / QQYHRLPLS the result was 580 pM (6 of 6 replicates; controls 3 of 18).
With KSEQSCLYESRDKNSVA / WASTRES / QQYHRLALS the result was nd (0 of 6 replicates; controls 0 of 18).
With KVSQSHLYESRNKNSVA / NASTRES / QQYHRLPLS the result was 660 pM (6 of 6 replicates; controls 2 of 18).
With KLQQSVEYESRNKNSVA / NASTREQ / QQYHRLPLS the result was 1.2 nM (6 of 6 replicates; controls 1 of 18).
With KSSQSWLYESRNKNSVA / GASCRES / QQYHRLPLS the result was 620 pM (6 of 6 replicates; controls 1 of 18).
With KSSMSELYESRNKNSVA / GASTRES / QQYHRLPLS the result was 1.1 nM (6 of 6 replicates; controls 0 of 18).
With KLPQSVLYESRNKNNVA / SASTRES / QQYHRLPLS the result was 620 pM (6 of 6 replicates; controls 1 of 18).
With KSSISGLYESRMKNSVA / EASTREL / QQYHRLPLS the result was 5.7 nM (6 of 6 replicates; controls 4 of 18).
With KSSQSVLYESRNKNSVA / EKSTRES / QQYHRLPLS the result was 2.8 nM (6 of 6 replicates; controls 0 of 18).
With QSSQSGLYESRNKNSVA / GASTRES / QQYHRLPLS the result was 970 pM (6 of 6 replicates; controls 3 of 18).
With KSSQSVRFESNNKNSVA / WASTRSS / FQYHRLPLS the result was nd (0 of 6 replicates; controls 0 of 18).

The last 4 entries again:

CDR-L1,CDR-L2,CDR-L3,Kd (apparent),detected,empty controls
KSSISGLYESRMKNSVA,EASTREL,QQYHRLPLS,5.7 nM,6/6,4/18
KSSQSVLYESRNKNSVA,EKSTRES,QQYHRLPLS,2.8 nM,6/6,0/18
QSSQSGLYESRNKNSVA,GASTRES,QQYHRLPLS,970 pM,6/6,3/18
KSSQSVRFESNNKNSVA,WASTRSS,FQYHRLPLS,nd,0/6,0/18

The parent sequence was in this pool as ten entries: three were never detected, three once, and four in most replicates, with averages from 2.2 nM to 240 nM.
A sequence measured in both rounds can read differently, since the two assays cover different ranges.
Three control strains display no target. For all light chain designs, 4% of the pairings with them gave a signal, with a median of 430 nM and one signal in twenty below 38 nM, so weak values seen in few replicates may be background. The control count says in how many pairings with the empty strains this scFv gave a signal.

Reference: Li et al. 2023, doi:10.1038/s41467-023-39022-2. File: FLAb, binding data.